The values below come from PMC11386433 (Journal of Medicinal Chemistry, 2024).

Usually Kd stands for a measure of binding affinity in units of concentration.

Only a part of the results on these compounds is given; other tests are left out.

The assay has as its target δOR (Homo sapiens, UniProt P41143). In words: Radioligand binding, [3H]diprenorphine, HEK293T membrane preparations. The note with it: read-out: Kd of the radioligand; specific binding affinity of the radioligand, HEK293T membranes.

With [^3H]diprenorphine, the Kd turned out to be 0.27 nM.
